Data from publication PMC4293355.

Target: TMR-SpWsp1(VCA) (fission yeast) (UniProt O36027)
Assay: fluorescence polarisation

apparent Kd with near saturating (20 uM) SpPRF: 0.105 µM
Substance: G-actin (from UniProt P68135 1-377) (natural protein)
